Results published in ChEMBL document CHEMBL3120088, “Discovery of selective small molecule type III phosphatidylinositol 4-kinase alpha (PI4KIIIα) inhibitors as anti hepatitis C (HCV) agents” (J Med Chem, 2014).

How the values were obtained:
Homo sapiens [1] = organism: Homo sapiens; experiment: Selectivity ratio of IC50 for PI3Kgamma (2 to 1102) (unknown origin) to IC50 for GST-tagged PI4K-alpha (1 to 2044) (unknown origin)
Homo sapiens [2] = organism: Homo sapiens; experiment: Selectivity ratio of IC50 for PI3Kdelta (1 to 1044)/6xHis-tagged p85 (1 to 724) (unknown origin) to IC50 for GST-tagged PI4K-alpha (1 to 2044) (unknown origin)
Homo sapiens [3] = organism: Homo sapiens; experiment: Selectivity ratio of IC50 for PI3Kbeta (1 to 1070)/6xHis-tagged p85 (1 to 724) (unknown origin) to IC50 for GST-tagged PI4K-alpha (1 to 2044) (unknown origin)
Homo sapiens [4] = organism: Homo sapiens; experiment: Selectivity ratio of IC50 for PI3Kalpha (1 to 1068)/6xHis-tagged p85 (1 to 724) (unknown origin) to IC50 for GST-tagged PI4K-alpha (1 to 2044) (unknown origin)

Compound	Ratio IC50 (Homo sapiens [1])	Ratio IC50 (Homo sapiens [2])	Ratio IC50 (Homo sapiens [3])	Ratio IC50 (Homo sapiens [4])
COc1ncc(-c2ccc3nc(N)n(-c4ccccc4)c(=O)c3c2)cc1NS(C)(=O)=O	5	5	5	5
COc1ncc(-c2ccc3nc(N)n(-c4ccccc4C(F)(F)F)c(=O)c3c2)cc1S(=O)(=O)Nc1ccc(F)cc1F	160	160	160	160
